Measured values as given in patent US20130011427A1 (priority 2009, published 2013).

System: HLA-A24/huCD8α (HLA-A*2402) Tg mice, CD4-depleted splenocytes
Type: cell-based, mouse

Sequence: AKGSRAIWFMWLGARFL [NS5 470-486]
- T cell activation of HLA transgenic mice (SFC/10^6) IFN-γ ELISpot, A24: 183 ± 19 SFC/10^6
